## Yeast mating assay 1: variants of the scFv Ab-14

Data: MIT Lincoln Laboratory AlphaSeq set, Engelhart et al. 2022, doi:10.1038/s41597-022-01779-4, as distributed in FLAb.

Target peptide (SARS-CoV-2 spike, HR2 region): PDVDLGDISGINAS

Parent scFv Ab-14: VH joined to VL by the linker GGGGSGGGGSGGGGS. Changes lie in the heavy chain CDRs alone.
VH: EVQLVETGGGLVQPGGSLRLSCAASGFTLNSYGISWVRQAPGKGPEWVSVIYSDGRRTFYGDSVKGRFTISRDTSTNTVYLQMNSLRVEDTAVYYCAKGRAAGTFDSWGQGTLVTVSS
VL: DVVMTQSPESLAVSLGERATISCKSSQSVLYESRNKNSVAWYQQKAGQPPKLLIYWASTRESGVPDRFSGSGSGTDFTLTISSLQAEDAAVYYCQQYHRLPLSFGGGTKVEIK

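Phage display of a naive human antibody library on the peptide gave the parent. The library (AAYL49) carries one to three amino acid substitutions per variant, with no insertions or deletions. Affinity was read by AlphaSeq, a pooled yeast mating assay with surface-displayed partners. Pairs that bind mate more often; barcode pairs of the diploids are counted by sequencing. Read counts were normalised to the haploid input and turned into Kd by a linear fit to BCL2-family pairs of known affinity, for each replicate. Each pool was mated in three replicate cultures.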

Positions count from residue 1 of the parent VH; R56N puts N in place of R.
Numbers give log10(Kd / nM), so 0 is 1 nM and 3 is 1 µM. Smaller is tighter.
Averages over replicates are reported, and they cover detected replicates only.
"n.d." marks a missing value. The strain was present, yet no cells mated with the target were sequenced in that replicate, which points to weak or no binding.
Three control strains display no target. For library AAYL49, 15% of the pairings with them gave a signal, with a median of 4.06 and one signal in twenty below 2.83, so weak values seen in few replicates may be background. For each scFv, signals with the empty controls are counted beside the result, with their mean in brackets.

changes,log10 Kd (nM) by replicate,mean log10 Kd (nM),signal with controls
R56N+T58N+S63E,n.d. / n.d. / n.d.,n.d.,0 of 9
F59G+A101M+T104W,1.97 / 2.06 / 2.07,2.03,3 of 9 (4.33)
R57F+K65R+A101W,n.d. / n.d. / 3.23,3.23,1 of 9 (4.18)
G33P+F59W+K65G,3.67 / n.d. / n.d.,3.67,1 of 9 (3.93)
G26V+A101Q,2.08 / 1.98 / 1.95,2.00,0 of 9
V50A+G99E+A102N,n.d. / n.d. / n.d.,n.d.,0 of 9
R56L+G103R+T104Q,1.48 / 1.43 / 1.39,1.43,3 of 9 (5.18)
L29Y+S53E+K65M,n.d. / 4.12 / n.d.,4.12,3 of 9 (4.05)
G33Y+S63D+F105K,n.d. / n.d. / n.d.,n.d.,0 of 9
G26Q+F27Y+T28E,n.d. / 5.15 / 3.67,4.41,0 of 9
G26V+F27R+D54I,n.d. / n.d. / n.d.,n.d.,0 of 9
R56N+S63A+G103W,n.d. / 4.73 / n.d.,4.73,3 of 9 (4.44)
I51F+S63C+A102H,n.d. / n.d. / n.d.,n.d.,1 of 9 (2.23)
D62E,0.83 / 0.68 / 0.77,0.76,3 of 9 (4.07)
D54P+R57Y+R100G,n.d. / n.d. / 4.71,4.71,2 of 9 (3.99)
F27L+V50D+A101I,n.d. / n.d. / n.d.,n.d.,1 of 9 (4.80)
Y52G+R100H+F105T,3.55 / 4.30 / n.d.,3.92,1 of 9 (3.29)
Y32V+Y52R+R100M,n.d. / 3.53 / 3.73,3.63,3 of 9 (4.62)
T28L+N30P+F59W,3.53 / 2.64 / 2.85,3.01,3 of 9 (4.30)
R56H+R57Y,n.d. / n.d. / n.d.,n.d.,0 of 9
I34P+R100I+G103Y,n.d. / n.d. / n.d.,n.d.,0 of 9
Y52P+G61E+T104Y,n.d. / n.d. / n.d.,n.d.,0 of 9
A102T,n.d. / n.d. / n.d.,n.d.,1 of 9 (3.71)
R56L+D62N+S107F,1.61 / 1.88 / 2.25,1.92,0 of 9
R57A+Y60H+D106K,3.97 / n.d. / n.d.,3.97,0 of 9
S63C+F105Q,0.91 / 2.08 / 1.79,1.59,1 of 9 (3.55)
G33P+I51K+F105M,n.d. / n.d. / n.d.,n.d.,0 of 9
R56H+T58F+A101C,1.97 / 1.71 / 2.54,2.08,0 of 9
K65G,1.83 / 1.77 / 2.13,1.91,4 of 9 (4.55)
S35N+Y60A+D106P,n.d. / n.d. / n.d.,n.d.,0 of 9
T28C+Y52K+G103I,n.d. / 4.54 / n.d.,4.54,3 of 9 (4.40)
G55R+G99M,n.d. / n.d. / 5.70,5.70,1 of 9 (3.25)
V50I+D62H+S107A,n.d. / n.d. / n.d.,n.d.,1 of 9 (3.13)
N30R+G33H+I34S,n.d. / n.d. / n.d.,n.d.,1 of 9 (4.21)
F59S+S63D+G103R,1.25 / 1.08 / 1.23,1.19,2 of 9 (4.06)

Extract of 4 entries:

changes,log10 Kd (nM) by replicate,mean log10 Kd (nM),signal with controls
D54P+R57Y+R100G,n.d. / n.d. / 4.71,4.71,2 of 9 (3.99)
G33P+F59W+K65G,3.67 / n.d. / n.d.,3.67,1 of 9 (3.93)
R56L+G103R+T104Q,1.48 / 1.43 / 1.39,1.43,3 of 9 (5.18)
K65G,1.83 / 1.77 / 2.13,1.91,4 of 9 (4.55)

In this assay the parent's reference entry averaged 0.65; its copy inside this library read 4.11 (one replicate of three).